Results published in publication PMC8548882, “The Trp-rich Antimicrobial Amphiphiles With Intramolecular Aromatic Interactions for the Treatment of Bacterial Infection” (Frontiers in Microbiology, 2021).

Legend:
RAW 264.7 cells = format: cell-based, murine; settings: 24h
Procedure: (§1) The MTT (3-[4,5 dimethylthiozol-2-yl]-2,5-diphenylterazoliumbromide) dye was selected to analyze the cytotoxicity of peptides against the murine macrophage cell RAW 264.7 (National Collection of Authenticated Cell Cultures, Shanghai, China), human embryonic kidneys (HK293T), and the porcine intestinal epithelial cells (IPEC-J2) as in our previously study ([Li et al., 2020]). In short, the cells (10^4 cells/well) were seeded into 96-well plates and were cultivated overnight. Then the peptides with different final concentration (2μM, 4μM, 8μM, 16μM, 32μM, 64μM, and 128μM) were introduced into the plate and challenged with cells for 24h. After overnight incubation, the 50μl MTT (0.5mg/ml) was added into the cell cultures for 4h. Then the plate was centrifuged to discard the supernatants and obtain the formazan crystals. The DMSO (dimethyl sulfoxide) was employed as a solvent to dissolve the formazan crystals on the bottom of the plate and the optical density was read at 492nm with a microplate reader.

HEK 293T cells = format: cell-based, human; settings: MTT, 24h, tested 2–128μM
Procedure: as §1

CC[C@H](C)[C@H](NC(=O)CN)C(=O)NCC(=O)N[C@@H](C)C(=O)N[C@H](C(=O)N[C@@H](CC(C)C)C(=O)N[C@@H](CCCCN)C(=O)N[C@H](C(=O)N[C@@H](CC(C)C)C(=O)N[C@H](C(=O)N[C@H](C(=O)NCC(=O)N[C@@H](CC(C)C)C(=O)N1CCC[C@H]1C(=O)N[C@@H](C)C(=O)N[C@@H](CC(C)C)C(=O)N[C@H](C(=O)N[C@@H](CO)C(=O)N[C@@H](Cc1c[nH]c2ccccc12)C(=O)N[C@H](C(=O)N[C@@H](CCCCN)C(=O)N[C@@H](CCCNC(=N)N)C(=O)N[C@@H](CCCCN)C(=O)N[C@@H](CCCNC(=N)N)C(=O)N[C@@H](CCC(N)=O)C(=O)N[C@@H](CCC(N)=O)C(N)=O)[C@@H](C)CC)[C@@H](C)CC)[C@@H](C)O)[C@@H](C)O)C(C)C)C(C)C [Melittin, reference compound]
cell viability (RAW 264.7 cells; RAW 264.7, MTT, 32μM): below 5%
IC50 (RAW 264.7 cells; RAW264.7, MTT, tested 2–128μM): 3.79 µM
IC50 (HEK 293T cells): 5.38 µM
